# MC4R barr agon – human MC4R agonism via beta-arrestin | P32245 | U2OS MC4R beta-arrestin complementation, luminescence; percent of melanotan II response, DMSO zero | activation, % at 8.9 µM | hit rate 0.98% among 360,000;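 active = activation above a per-plate cutoff, the mean activation of sample wells on that plate plus 3 SD, cut at about 8% in these data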
# NALP1 yeast inh – NALP1 inhibition; S. cerevisiae NALP1/ASC/caspase-1 growth, X-gal OD620, 72 h; inhibition, % at 10 µM; hit rate 0.61% among 280,000; in the data active = inhibition mostly above about 24%, no sharp cut-off; inactive = mostly below about 32%
# HDAC3 inh – human HDAC3 inhibition; O15379; recombinant HDAC3, fluorogenic peptide/trypsin coupled, fluorescence; inhibition, % at 8.3 µM; hit rate 0.15% among 320,000; AID 2718; in the data active = inhibition above about 26%, passing the limit was not always enough
# MC4R antagonist – human MC4R antagonism in cAMP assay | hit rate 0.48% among 360,000 | AID 540295 | MC4R-expressing cells, MTII-stimulated cAMP, LANCE TR-FRET | P32245 | inhibition, % at 6.5 µM;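 active = inhibition above its plate's cutoff, the mean of tested wells on that plate plus 3 SD, cut at about 29% in these data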;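 also: 0% = Melanotan II alone and 100% = Melanotan II plus saturating MCL0020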
#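 Material: human MC4R-expressing U2OS cells. Probe or stimulus: Melanotan II challenge. Dosing: 6.5 µM single dose. Times: 30-min compound, 1-h challenge, 1-h detection, room temperature. Technique: TR-FRET with Eu-cAMP and labeled anti-cAMP, 671 nm. Replication: singlicate.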
# ALR inh – human ALR oxidase inhibition via reduced H2O2 | 290,000 compounds, 3.8% hits | inhibition, % (no concentration beside the values) | P55789 | purified ALR, DTT oxidation, H2O2 HRP-luminol luminescence;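 active means mean and each replicate at 75% or more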;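 further: stock transfer was 7.5 nL into about 7.5 µL; 0% = neutral wells and 100% = wells with inactivated enzyme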
# UUG fidelity – alters start codon recognition fidelity in yeast; AID 602363; activity score, % at 18.7 µM; 350,000 tested, 0.13% active; S. cerevisiae UUG-firefly luciferase reporter, luminescence/redox ratio;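 active means replicate mean at a twofold rise or more, about +100% in these data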;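 further: firefly luciferase made from a UUG start codon reports start codon fidelity; reporter light over untreated wells divided by growth signal over untreated wells; some hits fall short of that in this replicate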
# An asterisk follows results filed as active; nt = not tested or not shown. Rows were chosen to be rich in hits. Some 4.2% of all compounds tested hit in one or more screens of this group.
# Key to letters – A = MC4R barr agon; B = NALP1 yeast inh; C = HDAC3 inh; D = MC4R antagonist; E = ALR inh; F = UUG fidelity
C[C@@H]1CN([C@@H](C)CO)C(=O)c2cc(NS(=O)(=O)c3cccs3)ccc2O[C@H]1CN(C)C(=O)Nc1ccc(C(F)(F)F)cc1
  A: nt; B: nt; C: nt; D: nt; E: nt; F: 4
C[C@H](CO)N1C[C@H](C)[C@H](CN(C)C(=O)Nc2ccccc2)Oc2ccc(N(C)C)cc2CC1=O
  A: nt; B: nt; C: nt; D: nt; E: nt; F: 4
CN1CCN(CCC(=O)N2c3ccccc3Sc3ccc(C(F)(F)F)cc32)CC1
  A: -1; B: 15; C: 3; D: -3; E: 21; F: -7
CN(C)CCC(=O)N1c2ccccc2Sc2ccc(C(F)(F)F)cc21
  A: -1; B: 22; C: 6; D: 5; E: 98*; F: 2
CN(C)CCCN1c2ccc(O)cc2Sc2ccc(Cl)cc21
  A: -2; B: nt; C: nt; D: -12; E: nt; F: -5
O=C(Nc1ccccc1O)N1c2ccccc2Sc2ccccc21
  A: 0; B: 4; C: -2; D: 12; E: 84*; F: -9
CN(C)CCCN1c2ccccc2Sc2ccc(C(F)(F)F)cc21
  A: 0; B: 31; C: 13; D: -3; E: 98*; F: -16
OCCN1CCN(CCCN2c3ccccc3Sc3ccc(C(F)(F)F)cc32)CC1
  A: 1; B: 31; C: 4; D: 8; E: 98*; F: -12
OCCN1CCN(CC/C=C2/c3ccccc3Sc3ccc(C(F)(F)F)cc32)CC1
  A: 3; B: nt; C: 6; D: 7; E: -16; F: 0
O=C(C[C@H]1C[C@@H]2c3cc(NS(=O)(=O)c4ccc(F)cc4)ccc3O[C@@H]2[C@H](CO)O1)NCc1ccccc1F
  A: nt; B: nt; C: nt; D: nt; E: nt; F: 8
NCCC(=O)N1c2ccccc2Sc2ccccc21
  A: 2; B: 36*; C: 0; D: 8; E: -3; F: -14
C=CCN1Cc2ccccc2[C@H]2OC(c3ccc(OCCCO)cc3)=N[C@@]2(CCS(=O)(=O)c2ccccc2)C1=O
  A: nt; B: nt; C: nt; D: nt; E: nt; F: -3
CNC(=S)NNc1ccccc1[N+](=O)[O-]
  A: -2; B: -7; C: -16; D: 6; E: 98*; F: -18
COCCNC(=O)C[C@H]1C=C[C@H](NS(=O)(=O)c2ccc(C)cc2)[C@@H](CO)O1
  A: nt; B: nt; C: nt; D: nt; E: nt; F: 14
Cc1n[nH]c(=S)n1-c1ccccc1
  A: -1; B: -9; C: 18; D: 16; E: 49; F: nt
S=c1[nH]nc(COc2ccc(Cl)cc2)n1-c1ccc(Cl)cc1
  A: -2; B: 10; C: -2; D: 4; E: 85*; F: -17
Cc1ccc(OCc2n[nH]c(=S)n2-c2ccc(Cl)cc2)cc1
  A: -1; B: 5; C: 2; D: 0; E: nt; F: -16
Cc1n[nH]c(=S)n1-c1ccc(Cl)cc1
  A: 1; B: -2; C: 9; D: 5; E: 89*; F: nt
N#Cc1ccc(-c2ccc3c(c2)[C@@H]2[C@@H](CCN2Cc2ccc4c(c2)OCO4)[C@@H](CO)N3)cc1
  A: nt; B: nt; C: nt; D: nt; E: nt; F: -7
C[C@H]1CCCCO[C@@H](CN(C)Cc2ccc(C(F)(F)F)cc2)[C@@H](C)CN([C@@H](C)CO)C(=O)c2cc(NS(C)(=O)=O)ccc2O1
  A: nt; B: nt; C: nt; D: nt; E: nt; F: 31
COc1ccc(N/C=C(/C(C)=O)c2ccccc2)cc1
  A: -2; B: nt; C: 2; D: 5; E: 84*; F: nt
COc1ccc(N/C=C/C(=O)c2ccccc2)cc1
  A: 2; B: 17; C: 3; D: 1; E: -6; F: -64
O=C(/C(=N/N=C/c1ccc(O)c(O)c1O)c1ccccc1)c1ccccc1
  A: 6; B: 14; C: 12; D: 0; E: 99*; F: -4
COc1ccc(C(=O)C(=NN)c2ccccc2)cc1
  A: -1; B: nt; C: nt; D: 8; E: nt; F: -12
Oc1ccc(/C=N/N=C(c2ccccc2)c2ccccc2)c(O)c1O
  A: 3; B: 23; C: 13; D: 9; E: 98*; F: nt
COc1ccccc1NC(=O)N1CC[C@@H]2[C@H]1c1cc(-c3ccc(F)cc3)ccc1N(C)[C@@H]2CO
  A: nt; B: nt; C: nt; D: nt; E: nt; F: -6
COc1ccc(-c2nc(CSCC(=O)NCCCN3CCCC3=O)c(C)o2)cc1OC
  A: -1; B: 0; C: -3; D: 3; E: 98*; F: nt
CCOc1ccc(-c2nc(CSCC(=O)NCC3CCCO3)c(C)o2)cc1 (stereo not given)
  A: -2; B: 2; C: -10; D: 5; E: 99*; F: -12
Cc1ccc(-c2nc(CSCC(=O)NCC3CCCO3)c(C)o2)cc1 (stereo not given)
  A: -1; B: 17; C: 0; D: 0; E: 95*; F: nt
COc1ccc(-c2nc(CN3CCC(C(=O)NCC4CCCO4)CC3)c(C)o2)cc1OC (stereo not given)
  A: 0; B: 12; C: 6; D: 1; E: -10; F: nt
COc1ccc(-c2nnc(SCC(=O)NCC3CCCO3)o2)cc1 (stereo not given)
  A: -3; B: 12; C: -6; D: -2; E: 0; F: -13
COc1ccc(-c2nc(CSCC(=O)NCC3CCCO3)c(C)o2)cc1OC (stereo not given)
  A: -1; B: -1; C: 3; D: -1; E: 98*; F: -22
O=C(C[C@@H]1CC[C@H]2[C@@H](COC[C@@H](O)CN2CC2CCOCC2)O1)N1CCOCC1
  A: nt; B: nt; C: nt; D: nt; E: nt; F: -5
CNC(=O)C[C@@H]1CC[C@H]2[C@@H](COc3ccc(NC(=O)c4cccc(F)c4)cc3C(=O)N2C)O1
  A: nt; B: nt; C: nt; D: nt; E: nt; F: -14
COC(=O)c1c(NS(C)(=O)=O)sc2c1CCCC2
  A: 1; B: 5; C: 4; D: 3; E: 65; F: -2
COC(=O)c1c(NS(=O)(=O)Cc2ccccc2)sc2c1CCCC2
  A: 3; B: 29; C: -4; D: -7; E: 91*; F: -3
COc1cccc(C(=O)Nc2ccc3c(c2)C(=O)N(C)[C@H]2CC[C@H](CC(=O)NCC4CC4)O[C@H]2CO3)c1
  A: nt; B: nt; C: nt; D: nt; E: nt; F: 3
Cn1c(/C(C#N)=C/c2cccc(O)c2)nc2ccccc21
  A: 1; B: 41*; C: 8; D: -9; E: 16; F: -6
COc1ccccc1NC(=O)/C(C#N)=C/c1cccnc1
  A: -3; B: 13; C: 13; D: 8; E: 37; F: -6
Clc1ccc(N/N=C/c2cccnc2)cc1
  A: 0; B: 25; C: 1; D: 3; E: 99*; F: -36
N#C/C(=C\c1cccnc1)C(=O)Nc1cccc(Cl)c1
  A: 2; B: -4; C: 3; D: 15; E: 88*; F: nt
N#C/C(=C\c1cccnc1)C(=O)Nc1cccc2ccccc12
  A: -1; B: 12; C: 0; D: 9; E: 95*; F: nt
Clc1ccc(N/N=C/c2ccncc2)cc1Cl
  A: -2; B: 17; C: 0; D: 1; E: 98*; F: nt
Cc1cccc(NC(=O)/C(C#N)=C\c2cccnc2)c1
  A: -2; B: 47; C: 2; D: 1; E: 17; F: -23
CNC[C@H]1Oc2ccc(NC(=O)CCN3CCOCC3)cc2C(=O)N([C@@H](C)CO)C[C@H]1C
  A: nt; B: nt; C: nt; D: nt; E: nt; F: -9
N#C/C(=C\c1cccnc1)C(=O)Nc1ccc(Cl)cc1
  A: -3; B: 9; C: 1; D: -3; E: 98*; F: -16
COc1ccc(S(=O)(=O)Nc2ccc3c(c2)CC(=O)N([C@H](C)CO)C[C@H](C)[C@@H](CN(C)S(=O)(=O)c2ccc(C)cc2)O3)cc1
  A: nt; B: nt; C: nt; D: nt; E: nt; F: 2
COc1ccc2c(c1OC)C(=O)N1N=C(c3ccc(O)cc3)CC21 (stereo not given)
  A: -2; B: 37; C: 2; D: -2; E: 99*; F: nt
COc1ccc2c(c1OC)C(=O)N1c3ccccc3N=C(c3ccc([N+](=O)[O-])cc3)CC21 (stereo not given)
  A: -1; B: 0; C: 6; D: -3; E: 97*; F: nt
COc1ccc(NC(=S)NCCc2c[nH]c3ccccc23)c(OC)c1
  A: -4; B: 12; C: 3; D: 7; E: 3; F: -31
COc1ccc(NC(=S)NCCc2c[nH]c3ccc(OC)cc23)c(OC)c1
  A: -2; B: 29*; C: 5; D: 12; E: 12; F: -29

# Single records (already shown):
# Results for `COc1ccccc1NC(=O)/C(C#N)=C/c1cccnc1` = MC4R barr agon: -3; NALP1 yeast inh: 13; HDAC3 inh: 13; MC4R antagonist: 8; ALR inh: 37; UUG fidelity: -6
# Results for `Clc1ccc(N/N=C/c2cccnc2)cc1` = MC4R barr agon: 0; NALP1 yeast inh: 25; HDAC3 inh: 1; MC4R antagonist: 3; ALR inh: 99*; UUG fidelity: -36
